For one molecule, PAMPA results are on record in publication PMC6702104 (Bioorganic & medicinal chemistry letters, 2019).

Molecules are shown by their SMILES.

For this series the following is noted: pH 5.

As for `Cn1c(C(=O)NC2(c3ccc(C(=O)O)c(F)c3)COC2)cc2c(Cl)c(Cl)ccc21` [Compound 7], the PAMPA result is listed as “ND 152 (pH 5.0) nm s^−1”.
